Laboratory results taken from US20160213657A1, “PHARMACEUTICAL COMPOSITION FOR TREATMENT AND/OR PREVENTION OF PULMONARY DISEASE” (UBE INDUSTRIES, LTD., priority 2013, published 2016).

The chains behind the UniProt entries cited, without tags or fusion partners. Where a name states a change or a piece, a line headed by the entry shows the natural chain unless it says otherwise.
UniProt P43116: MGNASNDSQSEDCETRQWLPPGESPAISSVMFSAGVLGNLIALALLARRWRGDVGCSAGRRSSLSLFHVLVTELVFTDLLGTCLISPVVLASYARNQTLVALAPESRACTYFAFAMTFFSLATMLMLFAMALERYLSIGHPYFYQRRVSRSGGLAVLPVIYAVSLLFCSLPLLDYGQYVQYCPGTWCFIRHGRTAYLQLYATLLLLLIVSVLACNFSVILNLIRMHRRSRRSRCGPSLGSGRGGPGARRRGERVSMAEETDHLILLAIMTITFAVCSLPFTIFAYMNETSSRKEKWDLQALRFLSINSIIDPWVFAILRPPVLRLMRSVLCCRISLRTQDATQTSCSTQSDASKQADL

Target: human EP2 receptor (Homo sapiens, UniProt P43116)
Test: Measurement of EP2 receptor binding action ([3H]prostaglandin E2 displacement)
Conditions: membrane fraction of HEK293 cells expressing human EP2 receptor; [3H]prostaglandin E2 10 nM; 30° C., 60 minutes
Procedure: Measurement of EP2 Receptor Binding Action
The membrane fraction was collected on glass fiber filter paper (GF/B, manufactured by Whatman) using a cell harvester (M30R, manufactured by Brandel), and after washing with a buffer solution (10 mM MES-KOH (pH 6.0), 10 mM MgCl2), radioactivity was measured with a liquid scintillation analyzer (2000CA, manufactured by Packard).
Ki=IC50/(1+([^3H]prostaglandin E2 concentration/Kd))
Furthermore, the dissociation constant (Kd value) was calculated by Scatchard analysis.

`CCOc1cccc(-c2ccc(CN(Cc3cccc(NCC(=O)O)n3)S(=O)(=O)c3cccs3)cc2)c1` [Example 11, {6-[(3′-Ethoxybiphenyl-4-ylmethyl)(thiophen-2-ylsulfonyl)aminomethyl]-pyridin-2-ylamino}acetic acid] gave a Ki of 0.79 nM.

Work on `CCOc1cccc(-c2ccc(CN(Cc3cccc(NCC(=O)O)n3)S(=O)(=O)c3ccccn3)cc2)n1` [Example 12, (6-{[4-(6-Ethoxypyridin-2-yl)benzyl](pyridin-2-ylsulfonyl)aminomethyl}-pyridin-2-ylamino)acetic acid] yielded a Ki of 0.94 nM.
